Test [1] deals with MCF7 breast cancer cell line. Description: MCF7 breast cancer xenograft efficacy study. The format is in vivo. The conditions noted are these: MCF7 in NSG mice, dose only in FIG. 7. The protocol:
(§1) Tumor cells grown in the implantation culture of CD1 athymic nude mice: Calu-6 (2.5 × 10^6 cells in 50% matrigel) from ATCC, PC-3 (2.5 × 10^6 cells) from ATCC, and PA-1 (5 × 10^6 cells in 50% matrigel) from ATCC. Tumor cells grown in the implantation culture of NSG mice: HCC1806 (2.5 × 10^6 cells in 50% matrigel) from ATCC and MCF-7 (10 × 10^6 cells; for the in vivo growth of MCF-7, 8.5 µg/mL estradiol was added to the drinking water of female mice) from NCI.
(§2) When the tumors grew to 150 mm^3, the humanized LIV-1 ADC or the non-binding control ADC (1 mg/kg, 3 mg/kg, 6 mg/kg, or 10 mg/kg) was administered by intravenous injection once every four days for a total of four administrations (q4d × 4), by intravenous injection once every week for a total of 2 administrations (qw × 2), or by single intravenous injection. The tumor volume was monitored using a caliper, and the animals were euthanized when the tumor volume reached about 2000 mm^3. Tumor volume plots were continued for each group until one or more animals were euthanized. All animal procedures were conducted in a facility approved by the Association for Assessment and Accreditation of Laboratory Animal Care in accordance with protocols approved by the Institutional Animal Care and Use Committee. TGI was calculated as follows: TGI (%) = 1−[(Td−T0)/(Cd−C0)] × 100% [formula] […]

The test system of test [2] is Calu-6 lung cancer cell line. The test can be described thus: Calu-6 lung cancer xenograft efficacy study. To be noted: for TGI: day 25 after administration. Type of test: in vivo, CD1 athymic nude mice. The protocol: as §1
When the tumors grew to 150 mm^3, the humanized LIV-1 ADC or the non-binding control ADC (1 mg/kg, 3 mg/kg, 6 mg/kg, or 10 mg/kg) was administered by intravenous injection once every four days for a total of four administrations (q4d × 4), by intravenous injection once every week for a total of 2 administrations (qw × 2), or by single intravenous injection. The tumor volume was monitored using a caliper, and the animals were euthanized when the tumor volume reached about 2000 mm^3. Tumor volume plots were continued for each group until one or more animals were euthanized. All animal procedures were conducted in a facility approved by the Association for Assessment and Accreditation of Laboratory Animal Care in accordance with protocols approved by the Institutional Animal Care and Use Committee. TGI was calculated as follows: TGI (%) = 1−[(Td−T0)/(Cd−C0)] × 100% [formula]
where Td and Cd are the average tumor volumes of the treatment and control groups on the day of tumor volume measurement, and T0 and C0 are the average tumor volumes of the treatment and control groups on day 0.

Test [3] has as its system HCC1806 breast cancer cell line. Description: HCC1806 breast cancer xenograft efficacy study. The conditions noted are these: HCC1806 in NSG mice; day 21 after administration; dose only in FIG. 8. Type of test: in vivo. On the procedure:
as §1, §2

The next test relates to Calu6. The test can be described thus: In vitro inhibition of cell proliferation (CellTiterGlo2), Calu6. The conditions noted are these: Calu6 cells; Table 4-3. The format is cell-based, human. From the text:
(§3) In this experiment, a CellTiterGlo2 (Promega) reagent was used to evaluate the antiproliferative effect of the drug. The thermotolerant luciferase contained in this reagent can catalyze the mono-oxidation of fluorescein in the presence of Mg2+, ATP produced by living cells, and molecular oxygen, producing a stable "glow-type" luminescent signal, thereby determining the number of living cells in the culture by quantifying ATP, a marker for metabolically active cells.
(§4) The cell lines selected in this experiment were as follows: a human lung cancer cell (undifferentiated) line Calu6, and human breast cancer cell lines overexpressing LIV-1, i.e., MCF7-ATCC-LIV-1#7, #12, and #17.
(§5) In an incubator at 37 °C with 5% CO2, Calu6 cells were incubated in an RPMI-1640 medium containing 10% fetal bovine serum, and MCF7-ATCC-LIV-1 overexpressing cell lines were incubated in an EMEM medium containing 10% fetal bovine serum and 1 µg/mL. The four types of cells were seeded at 50 µL/well into 96-well plates at a density of 2 × 10^3 to 5 × 10^3 cells/well. After 24 h of incubation, different concentrations of antibody A-MMAE conjugates or control antibody-MMAE conjugates (IgG1-BrAc-MMAE) diluted with a culture medium were added at 100 µL/well. […] The glow values were determined, and the IC50 values (nM) of the anti-LIV-1 antibody A-BrAcMMAE conjugate for various cells were calculated (Table 3). […]
On the technique in general: Cellular ATP, detected with luciferase, serves as a proxy for viable cell number.

In test [4] the test system is PA-1 mouse subcutaneous tumors. The test can be described thus: PA-1 ovarian cancer xenograft efficacy study. Type of test: in vivo, CD1 athymic nude mice. To be noted: Single dose of 3 mg/kg, intravenous injection. On the procedure:
as §1, §2

In test [5] the test system is PC3 mouse subcutaneous tumors. The test can be described thus: PC3 prostate cancer xenograft efficacy study. Type of test: in vivo, CD1 athymic nude mice. On the procedure:
as §1, §2

The test system of a further test is MCF7-Liv1 #17. The test can be described thus: In vitro inhibition of cell proliferation (CellTiterGlo2), MCF7-Liv1 #17. The format is cell-based, human. To be noted: MCF7-Liv1 #17 cells.
Description: as §3, §4, §5

B1: A-BrAcMMAE (conjugate)
heavy: EVQLVQSGAEVKKPGATVKISCKASGLNIEDYYMHWVQQAPGKGLEWMGWIDPENGDTEYAEKFQGRVTITADTSTNTAYMELSSLRSEDTAVYYCTVHNAHYGTWFAYWGQGTTVTVSSASTKGPSVFPLAPSSKSTSGGTAALGCLVKDYFPEPVTVSWNSGALTSGVHTFPAVLQSSGLYSLSSVVTVPSSSLGTQTYICNVNHKPSNTKVDKKV[sequence of human IgG1 Fc not given]
light: DIVMTQTPLSLSVTPGQPASISCRSSQTLVRSDGNTYLEWYLQKPGQSPQLLIYRVSNRFSGVPDRFSGSGSGTDFTLKISRVEAEDVGVYYCFQGSHVPYTFGGGTKLEIKRTVAAPSVFIFPPSDEQLKSGTASVVCLLNNFYPREAKVQWKVDNALQSGNSQESVTEQDSKDSTYSLSSTLTLSKADYEKHKVYACEVTHQGLSSPVTKSFNRGEC
modifications: non-natural residues
What is called IC50 is the point on the concentration scale where inhibition reaches its midpoint. Read a low IC50 as greater potency. For B1, the “mice whose tumors completely regressed” value in test [1] (day 22 after administration) is listed as 4 mice; in test [2] (multiple-dose administration, 6 mg/kg group, day 28 after administration), 7 mice. Further, the TGI in test [1] (day 36 after administration) is 126.3%; in test [2] (multiple-dose administration, 3 mg/kg group), 75.14%; in test [2] (multiple-dose administration, 6 mg/kg group) it was 111.56%; in test [2] (single-dose administration, 6 mg/kg group) it was 52.72%; in test [2] (single-dose administration, 10 mg/kg group) it was 76.96%; in test [3], 102.99%. Also, the TGI in test [5] (PC-3 in nude mice, day 11 after administration, dose only in FIG. 9) was found to be 101.5%. Also, the IC50 in the test with Calu6 was found to be 2.21 nM; in the test with MCF7-Liv1 #17 (Table 4-2, Experiment 2), 0.025 nM; in the test with MCF7-Liv1 #17 (Table 4-2, Experiment 3), 0.0041 nM. For the same molecule, in test [4], the “Tumor growth inhibition rate TGI% (day 13 after administration)” value came to 93.77%. For the same molecule, the “Tumor growth inhibition rate TGI% (day 24 after administration)” value in test [5] (PC3 mouse subcutaneous tumors, Single dose of 10 mg/kg, intravenous injection) came to 116.19%.

These data come from EP4682168A1, “ANTI-LIV-1 ANTIBODY AND ANTI-LIV-1 ANTIBODY-DRUG CONJUGATE, AND PHARMACEUTICAL USE THEREOF” (priority 2023, dated 2024).
